Literature values in PMC6043395.

Biological target: VPS35 (Homo sapiens) (UniProt Q96QK1)

Q: With VPS29 (from UniProt Q9UBQ0) as the substance, how does the pKd read?
A: 6.70

pKd: −log10 of the molar value.
